{
  "sequences": {"note": "By UniProt entry, the sequences of proteins in these tests, tags left out. Residues count along the entry.", "UniProt P35968, 20-1356, species assumed": "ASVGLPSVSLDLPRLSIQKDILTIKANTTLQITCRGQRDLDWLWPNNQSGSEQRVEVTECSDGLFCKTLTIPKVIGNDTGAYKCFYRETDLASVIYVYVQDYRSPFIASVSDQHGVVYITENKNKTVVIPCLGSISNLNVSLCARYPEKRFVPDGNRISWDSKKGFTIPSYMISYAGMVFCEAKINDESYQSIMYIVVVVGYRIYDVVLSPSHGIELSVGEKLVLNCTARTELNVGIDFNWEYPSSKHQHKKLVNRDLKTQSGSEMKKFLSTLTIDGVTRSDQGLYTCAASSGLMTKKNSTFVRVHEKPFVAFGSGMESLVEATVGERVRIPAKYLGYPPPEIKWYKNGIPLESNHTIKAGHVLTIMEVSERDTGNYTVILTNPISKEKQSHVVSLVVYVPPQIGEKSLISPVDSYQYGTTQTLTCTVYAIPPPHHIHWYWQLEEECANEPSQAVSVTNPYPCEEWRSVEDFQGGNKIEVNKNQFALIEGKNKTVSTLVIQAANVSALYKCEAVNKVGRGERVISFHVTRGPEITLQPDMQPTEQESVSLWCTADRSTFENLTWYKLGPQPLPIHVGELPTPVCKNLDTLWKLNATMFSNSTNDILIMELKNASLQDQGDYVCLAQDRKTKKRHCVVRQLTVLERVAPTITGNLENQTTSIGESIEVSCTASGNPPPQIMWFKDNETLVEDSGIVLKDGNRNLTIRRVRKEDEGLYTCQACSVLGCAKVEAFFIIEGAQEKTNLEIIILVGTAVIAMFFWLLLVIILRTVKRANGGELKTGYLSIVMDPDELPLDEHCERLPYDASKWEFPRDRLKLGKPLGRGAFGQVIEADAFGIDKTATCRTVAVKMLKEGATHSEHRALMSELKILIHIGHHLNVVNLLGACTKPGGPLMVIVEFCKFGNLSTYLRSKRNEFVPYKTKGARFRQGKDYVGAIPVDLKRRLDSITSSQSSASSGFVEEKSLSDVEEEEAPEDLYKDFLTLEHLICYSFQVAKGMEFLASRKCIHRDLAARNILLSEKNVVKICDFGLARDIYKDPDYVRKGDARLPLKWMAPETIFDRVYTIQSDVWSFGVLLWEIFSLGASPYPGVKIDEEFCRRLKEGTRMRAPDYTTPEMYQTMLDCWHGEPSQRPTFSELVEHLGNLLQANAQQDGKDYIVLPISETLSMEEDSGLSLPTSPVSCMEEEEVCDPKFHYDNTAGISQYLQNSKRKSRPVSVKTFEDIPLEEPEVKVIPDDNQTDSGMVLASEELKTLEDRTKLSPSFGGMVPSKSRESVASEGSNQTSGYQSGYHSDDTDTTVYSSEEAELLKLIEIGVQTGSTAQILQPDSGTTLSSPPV"},
  "source": "patent US20030133972A1",
  "about": "“Targeted multivalent macromolecules” (priority 2000, published 2003)",
  "origin": "cited, not measured here",
  "target": "VEGFR2 (Homo sapiens, UniProt P35968)",
  "details": "cited from earlier work",
  "data": [
    {"substance": "VEGF", "values": [
      {"measurement": "Kd", "result": "0.05 to 0.77", "unit": "nM"}
    ]}
  ]
}
